The values that follow are results of earlier work, collected in patent US20240269237A1, “PHARMACEUTICAL COMPOSITION AND KIT COMPRISING AN IMMUNOMODULATORY SUBSTANCE FOR TREATING DISEASES” (ellennbe GmbH, priority 2021, published 2024).

In the data set the test system is rheumatoid arthritis. The settings on record: Patient 7, history 2008 to April 2021.

With abatacept, the “effectiveness of earlier treatment” value is on record as “insufficient effectiveness”.
